The values below are quoted from earlier work in patent publication US6716451B1, “Formulation and delivery method to enhance antioxidant potency of vitamin E” (Soft Gel Technologies, Inc., priority 1999, dated 2004).

The conditions of this data set: daily doses of 100 to 500 mg.

On to Vitamin E, for which the detrimental effects result is on record as “No evidence of detrimental effects”.
